Our source for the inhibition values is PubChem BioAssay AID743247 (Broad Institute, 2014).

SMILES strings stand for the structures. The list shows a part of the results, in another mix than the full data. Some salts or complexes appear as unconnected parts, following the source record. The source made the active and inactive calls.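 Rule for the calls: active = mean inhibition across replicates of 30% or more, regardless of how many single replicates reach that level; inconclusive = mean under 30% yet at least half of replicates reach 30%; inactive = the rest.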

This experiment can be described thus: blockers of fibronectin fibrillogenesis by fibroblasts – AH1F cells, Alexa488-fibronectin fluorescence, plate reader, primary screen (AID 743247).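 Note: positive control wells lacked labelled fibronectin entirely.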 As to conditions: Alexa488-fibronectin deposition fluorescence, overnight, at 12.6 µM, stronger effect = higher value. The procedure, abridged:
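Material: AH1F fibroblast monolayer depositing Alexa488-labelled fibronectin into matrix | Input: 10000 AH1F cells/well | Medium: DMEM plus 2% serum, read in PBS | Reagent: Alexa488-fibronectin, 24 nM final in well | Compound dosing: One dose per compound, pinned | Schedule: 1 h adhesion, overnight exposure | Measured by: Fluorescence at 485 nm excitation, 525 nm emission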
Usually inhibition stands for the drop in the measured response relative to a control, in per cent. Regarding `CCCCCCCCCCCCCCCC1C[N+](C)(C)CCOP(C)(=O)O1` (stereo unspecified), the inhibition is inactive: -0.377%.
Next, `CP(=O)(OCCOc1ccccc1)OCCOc1ccccc1`: inactive: 9.43%; `COc1ccc(OP(C)(=O)Nc2ccccc2Br)cc1` (stereo unspecified): inactive: 1.01%; `Cc1cc(C)cc(OP(C)(=O)Nc2cccc(C(F)(F)F)c2)c1` (stereo unspecified): inactive: 6.63%.
Take `O=C1C(O)=C([N+](=O)[O-])C(=O)C(O)=C1[N+](=O)[O-]`: the inhibition was inactive: -5.21%.
Next, `COc1ccccc1OP(C)(=O)Nc1ccc(C)cc1C` (stereo unspecified): inactive: -0.179%; `Cc1c(NP(C)(=O)Oc2ccc(C(C)C)cc2)c(=O)n(-c2ccccc2)n1C` (stereo unspecified): inactive: -2.75%; `O=[N+]([O-])c1cc([N+](=O)[O-])c(Nc2ccccn2)c([N+](=O)[O-])c1`: inactive: -5.25%.
Next, `COc1ccc(OP(C)(=O)Nc2ccccn2)cc1` (stereo unspecified): inactive: 9.78%.
Regarding `CN(C)CCOC(=O)C(O)(c1ccccc1)C1CCCC1` (stereo unspecified), the inhibition was inactive: -7.68%.
With `COc1ccccc1OP(C)(=O)Nc1ccc(Br)cc1` (stereo unspecified), the inhibition is inactive: 3.85%.
Turning to `CN(C)C(=O)c1c([N+](=O)[O-])cc([N+](=O)[O-])cc1[N+](=O)[O-]`, the inhibition is inactive: 6.67%.
Turning to `COc1ccccc1OP(C)(=O)Nc1ccccc1Br` (stereo unspecified), the inhibition is inactive: -34.6%.
To `CC(C)(C)c1ccc(OP(C)(=O)O)cc1` belongs inactive: -9.41%; to `O=C(OCCCN1CCCC1)C(O)(c1ccccc1)C1CCCCC1` (stereo unspecified), inactive: 7.46%; to `COc1ccccc1OP(C)(=O)Nc1c(C)n(C)n(-c2ccccc2)c1=O` (stereo unspecified), inactive: -4.58%.
Next, `CCc1ccc(OP(C)(=O)Nc2cccnc2)cc1` (stereo unspecified): inactive: 4.65%; `CCN(CC)CC(O)COC(=O)C(O)(c1ccccc1)C1CCCCC1` (stereo unspecified): inactive: 11.2%.
Regarding `CCOC(=O)c1ccc(NP(C)(=O)Oc2ccc(Cl)cc2)cc1` (stereo unspecified), the inhibition is inactive: -3.23%.
To `CP(=O)(OC12CC3CC(CC(C3)C1)C2)OC12CC3CC(CC(C3)C1)C2` belongs inactive: 9.3%.
To `Nc1ccc2c(ccc3cccnc32)n1.O=[N+]([O-])c1cc([N+](=O)[O-])c(O)c([N+](=O)[O-])c1` belongs inactive: 0.675%.
In the case of `Cc1c(C(c2ccc3c(c2)OCO3)c2c(C)n(C)n(-c3ccccc3)c2=O)c(=O)n(-c2ccccc2)n1C.O=[N+]([O-])c1cc([N+](=O)[O-])c(O)c([N+](=O)[O-])c1`, the inhibition was inactive: -6.3%.
In the case of `O=[N+]([O-])c1ccc(OP2(=O)COCCO2)cc1` (stereo unspecified), the inhibition was inactive: -6.21%.
In the case of `Cc1cc(-c2cccc3ccccc23)c(C)cn1.O=[N+]([O-])c1cc([N+](=O)[O-])c(O)c([N+](=O)[O-])c1`, the inhibition is inactive: 5.09%.
Turning to `O=[N+]([O-])c1cc([N+](=O)[O-])c(NCC2CCS(=O)(=O)C2)c([N+](=O)[O-])c1` (stereo unspecified), the inhibition was inactive: -17.9%.
To `COc1ccc(NP(C)(=O)Oc2ccccc2OC)cc1` (stereo unspecified) belongs inactive: 3.23%.
`COc1ccc(OP(C)(=O)Nc2cccc(Br)c2)cc1` (stereo unspecified): the inhibition is inactive: 0.645%.
With `O=[N+]([O-])c1cc([N+](=O)[O-])c(C(F)(F)F)c([N+](=O)[O-])c1O`, the inhibition was inactive: -13.7%.
To `CCOP(C)(=S)SCC(=O)NC(C)(CC)C(=O)O` (stereo unspecified) belongs inactive: -3.79%.
In the case of `CP(=O)(Nc1ccc(SC(F)(F)F)cc1)Oc1ccc(F)cc1` (stereo unspecified), the inhibition is inactive: -0.88%.
With `COc1ccc2c(c1O)-c1c(O)c(OC)cc3c1[C@H](C2)[N+](C)(C)CC3.O=[N+]([O-])c1cc([N+](=O)[O-])c([O-])c([N+](=O)[O-])c1[O-]`, the inhibition is inactive: 1.74%.
To `O=C(OC1CN2CCC1CC2)c1ccc([N+](=O)[O-])cc1` (stereo unspecified) belongs inactive: -1.94%; to `O=C(OCCN1CCN(CCOCc2ccccc2)CC1)C(O)(c1ccccc1)c1ccccc1`, inactive: -0.156%.
Turning to `CC(C)c1ccc(OP(C)(=O)Nc2ccc(SC(F)(F)F)cc2)cc1` (stereo unspecified), the inhibition is inactive: -4.69%.
To `O=[N+]([O-])c1cc([N+](=O)[O-])c(Nc2ccc(Cl)cc2)c([N+](=O)[O-])c1` belongs inactive: 9.64%.
Next, `CP(=O)(Nc1ccccc1)Oc1ccc(F)cc1` (stereo unspecified): inactive: 0.785%; `O=[N+]([O-])c1cc([N+](=O)[O-])c(OC2CCCCC2O)c([N+](=O)[O-])c1` (stereo unspecified): inactive: -5.82%.
Next, `CCCCCOc1ccc(NP(C)(=O)Oc2ccc(Cl)cc2Cl)cc1` (stereo unspecified): inactive: -12.2%.
With `Cc1c([N+](=O)[O-])cc([N+](=O)[O-])c(Br)c1[N+](=O)[O-]`, the inhibition is inactive: -2.86%.
To `CCOC(=O)c1ccc(NP(C)(=O)Oc2ccc(F)cc2)cc1` (stereo unspecified) belongs inactive: -5.32%; to `COc1ccc(OP(C)(=O)Nc2ccc(SC(F)(F)F)cc2)cc1` (stereo unspecified), inactive: 3.78%; to `CCN(CC)CCCNc1ccccc1[N+](=O)[O-].O=[N+]([O-])c1cc([N+](=O)[O-])c(O)c([N+](=O)[O-])c1`, inactive: -7.35%.
Next, `CC1=NCCc2c1[nH]c1ccccc21.O=[N+]([O-])c1cc([N+](=O)[O-])c(O)c([N+](=O)[O-])c1`: inactive: 1.01%; `O=C(O)c1cccc(Nc2c([N+](=O)[O-])cc([N+](=O)[O-])cc2[N+](=O)[O-])c1`: inactive: -3.24%; `CP(=O)(Nc1cccc(Br)c1)Oc1ccccc1` (stereo unspecified): inactive: -7.12%.
As for `CCOC(=O)c1ccc(NP(C)(=O)Oc2cc(C)cc(C)c2)cc1` (stereo unspecified), the inhibition was inactive: 3.88%.
Next, `COc1ccccc1OP(C)(=O)Nc1cccc(Br)c1` (stereo unspecified): inactive: -4%; `Cc1nc2ccc3ccccc3c2s1.O=[N+]([O-])c1cc([N+](=O)[O-])c(O)c([N+](=O)[O-])c1`: inactive: 5.57%; `O=[N+]([O-])c1cc([N+](=O)[O-])c(-c2cnn(-c3ccccc3)c2)c([N+](=O)[O-])c1`: inactive: 1.03%.
As for `CN(Cc1cccnc1)C(=O)COc1ccc(Cl)c(Cl)c1.O=[N+]([O-])c1cc([N+](=O)[O-])c(O)c([N+](=O)[O-])c1`, the inhibition was inactive: -10.4%.
Next, `COc1ccc(-c2ccccn2)cc1.O=[N+]([O-])c1cc([N+](=O)[O-])c(O)c([N+](=O)[O-])c1`: inactive: -6.49%; `CCCOc1ccc(NP(C)(=O)Oc2ccc(Cl)cc2)cc1` (stereo unspecified): inactive: 0.605%.
To `CP(=O)(Nc1ccc(SC(F)(F)F)cc1)Oc1ccccc1` (stereo unspecified) belongs inactive: -0.603%; to `CN1CCCCC1COC(=O)C1(O)c2ccccc2CCc2ccccc21` (stereo unspecified), inactive: 8.67%; to `COc1ccccc1OP(C)(=O)Nc1c(C)cccc1C` (stereo unspecified), inactive: 2.2%.
To `CCOC(=O)C(CC)C1=NC(C)(C)Cc2ccccc21.O=[N+]([O-])c1cc([N+](=O)[O-])c(O)c([N+](=O)[O-])c1` (stereo unspecified) belongs inactive: -6.64%; to `O=[N+]([O-])c1cc([N+](=O)[O-])c(Nc2nnnn2CCO)c([N+](=O)[O-])c1`, inactive: 7.42%.
For the compound `CP(=O)(Nc1ccccc1Br)Oc1ccccc1` (stereo unspecified), the inhibition was inactive: -3.6%.
To `COc1ccccc1OP(C)(=O)Nc1ccccc1` (stereo unspecified) belongs inactive: -0.471%.
As for `O=[N+]([O-])c1cc([N+](=O)[O-])c(O)c([N+](=O)[O-])c1.c1ccc(Oc2ccncc2)cc1`, the inhibition was inactive: -2.65%.
As for `CCOC(=O)c1ccc(NP(C)(=O)Oc2ccc(OC)cc2)cc1` (stereo unspecified), the inhibition was inactive: 2.68%.
To `Cc1cc(C)cc(OP(C)(=O)Nc2ccc(SC(F)(F)F)cc2)c1` (stereo unspecified) belongs inactive: -11.4%; to `CCc1ccc(OP(C)(=O)N2CCN(c3ccc([N+](=O)[O-])cc3)CC2)cc1` (stereo unspecified), inactive: -0.891%; to `CP(=O)(Nc1ccc(SC(F)(F)F)cc1)Oc1ccc(Cl)cc1` (stereo unspecified), inactive: -6.72%.
For the compound `Cc1cccc(C)c1OP(C)(=O)Nc1ccc(SC(F)(F)F)cc1` (stereo unspecified), the inhibition was inactive: -7.44%.
For the compound `COc1ccccc1-c1ccccn1.O=[N+]([O-])c1cc([N+](=O)[O-])c(O)c([N+](=O)[O-])c1`, the inhibition was inactive: 11.4%.
Take `CCN(CC)CCCOC(=O)C(O)(c1ccccc1)c1ccccc1`: the inhibition was inactive: -0.467%.
As to `Cc1cc(C)cc(OP(C)(N)=O)c1` (stereo unspecified), the inhibition was inactive: -5.9%.
To `COc1ccc(OP(C)(=O)Nc2cccc(F)c2)cc1` (stereo unspecified) belongs inactive: 6.75%; to `COc1ccccc1OP(C)(=O)Nc1cc(Cl)ccc1C` (stereo unspecified), inactive: 3.34%.
Regarding `Cc1ccc(NP(C)(=O)Oc2ccccc2)c(C)c1` (stereo unspecified), the inhibition was inactive: 1.04%.
To `CCOC(=O)c1ccc(NP(C)(=O)Oc2ccccc2)cc1` (stereo unspecified) belongs inactive: -8.21%.
As for `O=[N+]([O-])c1ccc2c(c1)C=Nc1ccccc1O2`, the inhibition was inactive: 2.41%.
Next, `Cc1cccc(C)c1OP(C)(N)=O` (stereo unspecified): inactive: 1.87%; `CC(C)(C)c1ccc(OP(C)(=O)Nc2ccc(SC(F)(F)F)cc2)cc1` (stereo unspecified): inactive: 2.28%; `O=[N+]([O-])c1cc([N+](=O)[O-])c(Nc2cccnc2)c([N+](=O)[O-])c1`: inactive: -1.09%.
